What all share (format): cell-based, mouse
In test [1] the test system is 4F-transduced Oct4-GFP MEFs. The experiment in a line: Kinase inhibitor treatment of 4F-transduced Oct4-GFP MEFs, Oct4-GFP+ colony count (reprogramming efficiency). Particulars: 4F plus p53 shRNA, inhibitor from day 3, GFP+ colonies at day 12.
The subject of the next test is 4F-infected MEFs. Nature of the test: Cell proliferation assay (Celltiter 96 aqueous), 4F-infected MEFs. The following applies: 4F-transduced MEFs, 0.5 μM. How it is done:
(§1) FIGS. 14A-14D are a series of tabular and graphical representations depicting essential hits that block the reprogramming process. FIG. 14A is a table listing essential hits that are not Cdk inhibitors. FIG. 14B is a graph showing proliferation of wild-type MEFs is altered by inhibitor treatment. MEFs were treated with drugs at 2 μM and proliferation was assayed by using the Celltiter 96™ aqueous method (Promega). Y-axis represents the absorbance at 490 nm to detect formazan, which is converted from MTS tetrazolium by living cells. A higher reading indicates increased cell number. FIG. 14C is a graph showing proliferation of 4F-transduced MEFs was also altered by drug treatment. FIG. 14D is a histogram showing that reprogramming efficiency was decreased by drug treatment. Oct4-GFP+ colonies were quantified at day 13.
(§2) FIG. 16A is a graph plotting relative cell viability. […] Proliferation of cells was analyzed every other day using the Celltiter 96™ aqueous method (Promega). […]
(§3) Cell proliferation assay: 3000 MEFs were seeded in each well in 96-well plates and transduced with 4F virus for three days. […] Absorbance at 490 nm was then measured for each well using a plate reader, and data was used to generate relative proliferation curves using the signal from day 3 post-transduction as a reference.

The test system of the next test is uninfected MEFs. The experiment in a line: Cell proliferation assay (Celltiter 96 aqueous), uninfected MEFs. The following applies: 0.5 μM. How it is done:
as §1, §2, §3

Consider `O=C(Nc1cccc(Nc2nccc(Nc3cccc(C(F)(F)F)c3)n2)c1)C1CC1` [BIM-0086660], for which, in test [1], the “iPSC generation when p53 is silenced by shRNA” value was “equivalent in inhibitor-treated and -untreated conditions”. Also, the proliferation result in the test with 4F-infected MEFs and in the test with uninfected MEFs was “did not significantly promote proliferation” throughout.
